Source: article PMC9318133, “In Vivo Bio-Activation of JWH-175 to JWH-018: Pharmacodynamic and Pharmacokinetic Studies in Mice” (International Journal of Molecular Sciences, 2022)

Chains of the proteins cited; added tags and fusions are not shown.
UniProt P47746, whole entry: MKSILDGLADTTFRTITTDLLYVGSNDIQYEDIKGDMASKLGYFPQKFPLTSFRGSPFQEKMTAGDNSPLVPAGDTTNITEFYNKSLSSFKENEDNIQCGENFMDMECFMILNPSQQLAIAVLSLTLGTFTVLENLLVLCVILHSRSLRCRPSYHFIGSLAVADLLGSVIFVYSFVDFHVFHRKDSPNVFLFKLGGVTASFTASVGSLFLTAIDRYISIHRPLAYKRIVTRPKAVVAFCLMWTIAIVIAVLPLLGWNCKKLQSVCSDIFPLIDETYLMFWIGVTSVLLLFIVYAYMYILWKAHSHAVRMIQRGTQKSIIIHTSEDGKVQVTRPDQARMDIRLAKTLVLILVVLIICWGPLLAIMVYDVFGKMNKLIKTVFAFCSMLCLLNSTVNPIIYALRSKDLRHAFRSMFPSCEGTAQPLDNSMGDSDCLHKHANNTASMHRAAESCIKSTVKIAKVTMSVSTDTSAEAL
UniProt P21554, whole entry: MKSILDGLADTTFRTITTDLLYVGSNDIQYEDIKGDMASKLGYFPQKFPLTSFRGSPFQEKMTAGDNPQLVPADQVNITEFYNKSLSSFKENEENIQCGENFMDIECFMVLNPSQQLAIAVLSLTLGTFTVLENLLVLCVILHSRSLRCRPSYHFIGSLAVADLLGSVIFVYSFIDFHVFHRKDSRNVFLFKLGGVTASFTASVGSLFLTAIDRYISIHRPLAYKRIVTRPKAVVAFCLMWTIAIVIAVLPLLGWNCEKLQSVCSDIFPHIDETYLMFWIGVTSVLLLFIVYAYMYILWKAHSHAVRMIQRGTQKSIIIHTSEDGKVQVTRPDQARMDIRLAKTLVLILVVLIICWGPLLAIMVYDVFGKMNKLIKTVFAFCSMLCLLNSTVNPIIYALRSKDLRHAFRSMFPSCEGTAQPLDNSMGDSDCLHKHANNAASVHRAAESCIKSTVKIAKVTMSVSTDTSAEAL

Columns and labels:
mouse CB1 receptors = biological target: T1, mouse CB1 receptors (Mus musculus, UniProt P47746); assay: [3H]-CP-55,940 competition binding, mouse brain (cortex) membranes; conditions: ratio of Ki values
T1 construct: membranes from the mouse brain and spleen were used, respectively; from tissue
Method: To evaluate the affinity of JWH-175 for murine CB1 and CB2 receptors, membranes from the mouse brain and spleen were used, respectively. Following excision from mice, tissues were suspended in 50 mM Tris HCl, pH 7.4, at 4 °C. The mouse brain and spleen tissues were homogenized with a Polytron and subsequently centrifuged for 10 min at 2000× g. The resulting supernatants were filtered and centrifuged for 20 min at 40,000× g, and the pellets were used for competition binding experiments.
Competition binding experiments were carried out by incubating 0.5 nM [3H]-CP-55,940 (Perkin Elmer Life and Analytical Sciences, Waltham, MA, USA) and different concentrations of the tested compounds for 90 or 60 min at 30 °C for CB1 or CB2 receptors, respectively. […] Non-specific binding was determined in the presence of 1 μM WIN 55,212-2 [92]. Bound and free radioactivity were separated by filtering the assay mixture through Whatman GF/C glass fiber filters using a Brandel cell harvester (Brandel Instruments, Unterföhring, Germany). The filter-bound radioactivity was counted using a Packard Tri Carb 2810 TR scintillation counter (Perkin Elmer Life and Analytical Sciences, Waltham, MA, USA).
The protein concentration was determined according to a Bio-Rad method with bovine serum albumin as a reference standard. […] All the data are expressed as the mean ± SEM of three independent experiments.

human CB1 receptors = biological target: T2, human CB1 receptors (Homo sapiens, UniProt P21554); assay: [3H]-CP-55,940 competition binding, CHO cell membranes transfected with human CB1 receptors
T2 construct: host or cells: CHO cells

With CCCCCn1cc(Cc2cccc3ccccc23)c2ccccc21 [JWH-175, 3-(1-naphthalenylmethyl)-1-pentyl-1H-indole] the “fold lower affinity than JWH-018 at mouse CB1 receptors” value (mouse CB1 receptors) was 5.77 fold and the “selectivity index (ratio between the Ki value to human CB2 and the Ki value to human CB1)” value (human CB1 receptors) was 14.
